Measurements reported in ChEMBL document CHEMBL1142385, “Nitro as a novel zinc-binding group in the inhibition of carboxypeptidase A” (Bioorg Med Chem, 2008).

Molecular target: T1, Carboxypeptidase A1 (Homo sapiens, UniProt P15085)
T1 sequence (P15085 whole entry): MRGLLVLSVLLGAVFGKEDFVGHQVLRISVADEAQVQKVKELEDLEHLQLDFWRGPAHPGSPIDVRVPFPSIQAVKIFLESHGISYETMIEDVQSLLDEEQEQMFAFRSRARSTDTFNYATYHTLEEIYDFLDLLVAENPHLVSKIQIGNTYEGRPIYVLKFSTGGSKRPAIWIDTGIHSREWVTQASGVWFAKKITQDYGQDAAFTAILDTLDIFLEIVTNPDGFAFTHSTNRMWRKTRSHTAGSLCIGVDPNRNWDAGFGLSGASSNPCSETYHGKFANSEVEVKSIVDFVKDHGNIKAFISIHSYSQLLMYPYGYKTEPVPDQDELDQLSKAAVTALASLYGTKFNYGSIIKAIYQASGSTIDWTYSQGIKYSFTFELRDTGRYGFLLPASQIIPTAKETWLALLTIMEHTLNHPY
Assay: Inhibition of CPA

`O=C(O)[C@H](Cc1ccccc1)C[N+](=O)[O-]` showed a Ki of 0.15 µM.
